Test results reported in patent US10066238B2, “Methods for producing antibodies” (priority 2013, dated 2018).

System: ZM214M.PL15 pseudovirus (clade C)
Experiment: HIV-1 neutralization assay (Env-pseudotyped virus, Luc reporter)
Format: cell-based
Conditions: mean ± SEM; for IC50: TZM-b1 cells

In the case of `C[C@H](Cn1cnc2c(N)ncnc21)OCP(=O)(O)O` [TFV, tenofovir], the IC50 (TFV concentration in combination, read-out: IC50 in a respective combination with VRC01p) is reported as 980 ± 230 nM, the IC50 (TFV, read-out: IC50 when used individually) is reported as 4550 ± 2490 nM and the “dose reduction index (DRI) in a respective combination with VRC01p” value is reported as 1.92 ± 0.43.

Where two headings read alike, the source gives them in different places.
